Data: patent US10336731B2, “Substituted 1H-indole-2-carboxamide compounds as indoleamine-2,3-dioxygenase inhibitors” (Merck Sharp & Dohme Corp., priority 2015, dated 2019)

Protein sequences, listed by entry. Tags and fused reporters are not part of them.
UniProt P14902, whole entry: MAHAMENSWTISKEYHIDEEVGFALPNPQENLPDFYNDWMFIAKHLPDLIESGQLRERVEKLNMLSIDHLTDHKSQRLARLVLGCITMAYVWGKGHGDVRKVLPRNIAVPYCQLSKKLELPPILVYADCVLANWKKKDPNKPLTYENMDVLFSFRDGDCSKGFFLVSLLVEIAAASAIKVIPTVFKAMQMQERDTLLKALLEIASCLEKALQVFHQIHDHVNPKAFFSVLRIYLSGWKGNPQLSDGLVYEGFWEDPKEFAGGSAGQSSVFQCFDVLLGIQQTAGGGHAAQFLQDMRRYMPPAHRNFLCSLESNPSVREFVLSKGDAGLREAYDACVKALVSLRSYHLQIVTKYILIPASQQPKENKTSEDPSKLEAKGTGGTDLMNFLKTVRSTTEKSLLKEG

Tests used:
human IDO protein = human IDO protein (Homo sapiens (Human), UniProt P14902); experiment: IDO biochemical coupled assay (formamidase, Ehrlich's reagent); details: 0.17 μM human IDO, 120 min pre-incubation, 45 μM L-Trp
Source text: (§1) For REF1-REF3 and Compounds 1-11, two different types of assay were employed: 1. An IDO biochemical coupled assay which utilised recombinantly produced and purified IDO enzyme in combination with the enzyme formamidase. This coupled enzyme system allowed conversion of N-formylkynurenine produced by IDO activity to kynurenine which was then quantified by fluorescence following addition of Erhlich's Reagent. 2. A cell-based assay for detecting the effect of test compounds on kynurenine production in cancer cells. This assay utilised cancer cells which expressed IDO and as such was used as a means of testing compound activity at the enzyme in a cell-based context. The protocols for these are set out below.
0.17 μM of human IDO protein was pre-incubated for 120 min at RT with test compounds in the presence of 50 mM KPO4, pH 7.0, 0.5 mM EDTA, 0.5 mM EGTA, 0.05% Triton X-100, 20 mM ascorbate, 500 U/ml catalase, 10 μM methylene blue at RT in a 384 well plate. 0.05 μg/μl kynurenine formamidase and 45 μM L-tryptophan (L-Trp) were added and the assays were incubated at RT for 40 min. Assays were stopped and the level of kynurenine was determined by incubation with Ehrlich's reagent to a final concentration of 1.33% at RT for 5 min. Fluorescence intensity was read at 475 nm/530 nm.

IDO (SKOV-3 cells) = IDO (SKOV-3 cells) (Homo sapiens (Human), UniProt P14902); experiment: IDO cell-based assay (kynurenine production in IFNγ-induced SKOV-3 cells); details: IFNγ 500 ng/ml, 500 μM L-Trp, 48 h
Source text: as §1
SKOV-3 ovary adenocarcinoma (ATCC) cells were grown in McCoys 5A+L-glutamax medium supplemented with 15% foetal bovine serum. On the day of assay, cells were detached using trypsin-EDTA (0.25% v/v), re-suspended in assay media (RPMI 1640 phenol red free+L-glutamine supplemented with 10% dialysed foetal bovine serum). SKOV-3 cells were seeded at 40K cells per well into 96-well plates containing test samples/vehicle control together with 500 μM L-Trp. Cells were then incubated for 48 h at 37° C. 5% CO2. IFNγ was also added at 500 ng/ml for the 48 h incubation in order to induce expression of IDO. Plates were centrifuged and the supernatant was removed and incubated for 5 min in the presence of 1% Erhlich's reagent. Kynurenine levels were then quantified by measuring absorbance at 490 nm.

Row | SMILES | hIDO biochemical assay pIC50 (human IDO protein) | pIC50, IDO cellular assay (SKOV3) (IDO (SKOV-3 cells))
1 | CC1CC1(NC(=O)c1cc2c(F)c(Cl)ccc2[nH]1)c1cnn(C)c1 (racemic) | 5.87 | 7.06
2 | CC1CC1(NC(=O)c1cc2cc(Cl)ccc2[nH]1)c1cnn(C)c1 (racemic) | 5.90 | 7.10
3 | CC1CC1(NC(=O)c1cc2cc(Cl)ccc2[nH]1)c1cnn(C)c1 (single isomer, unassigned) [Compound 1, (+) 1] | 6.40 | 7.38
4 | CC1CC1(NC(=O)c1cc2cc(Cl)ccc2[nH]1)c1cnn(C)c1 (single isomer, unassigned) [Compound 1, (−) 1] | 5.77 | 6.44
5 | C[C@@H]1C[C@]1(NC(=O)c1cc2cc(Br)ccc2[nH]1)c1cnn(C)c1 (single isomer, unassigned) [Compound 2, (+) 2] | 6.42 | 7.67
6 | C[C@@H]1C[C@]1(NC(=O)c1cc2cc(Br)ccc2[nH]1)c1cnn(C)c1 (single isomer, unassigned) [Compound 2, (−) 2] | 5.54 | 6.55
7 | CC1CC1(NC(=O)c1cc2cc(Cl)ccc2[nH]1)c1cnn(-c2ccccc2)c1 (single isomer, unassigned) [Compound 8, enantiomer 1] | – | 7.73
8 | CC1CC1(NC(=O)c1cc2cc(Cl)ccc2[nH]1)c1cnn(-c2ccccc2)c1 (single isomer, unassigned) [Compound 8, enantiomer 2] | – | 7.83
